Patent US12582645B2, “Chemokine CXCR4 receptor modulators and uses related thereto” (Emory University, priority 2017, dated 2026)

Amino acid sequences for entries named in this document (tags omitted).
UniProt P61073, whole entry: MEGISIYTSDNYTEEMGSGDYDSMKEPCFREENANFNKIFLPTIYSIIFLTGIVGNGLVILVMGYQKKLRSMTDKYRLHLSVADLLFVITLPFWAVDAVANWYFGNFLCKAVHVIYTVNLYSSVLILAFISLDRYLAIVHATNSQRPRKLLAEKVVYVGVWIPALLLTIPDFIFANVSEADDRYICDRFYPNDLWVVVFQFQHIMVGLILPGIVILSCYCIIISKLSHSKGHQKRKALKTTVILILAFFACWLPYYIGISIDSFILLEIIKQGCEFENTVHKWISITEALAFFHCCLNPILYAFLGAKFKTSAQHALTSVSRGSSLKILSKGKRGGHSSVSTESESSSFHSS

Target: CXCR4 (Homo sapiens, UniProt P61073)
Test: CXCR4-CEM calcium flux assay, antagonist mode (inhibition of SDF-1α-induced calcium flux)
Type: cell-based
Settings: read-out: CXCR4 Ca^2+ Flux IC50, CCRF-CEM cells expressing endogenous CXCR4, stimulated with 4 nM SDF-1α

NC1CCC(N(C[C@H]2Cc3ccccc3CN2)[C@H]2CCCc3cccnc32)CC1 (single isomer, unassigned)
IC50: 1.83 µM
